Results on one compound are retold here after publication PMC6344135, “Analgesic effects of the cathepsin K inhibitor L-006235 in the monosodium iodoacetate model of osteoarthritis pain” (Pain Reports, 2018).

Amino acid sequences for entries named in this document (tags omitted). Residues count along the entry.
UniProt O35186, 115-329 limits assumed: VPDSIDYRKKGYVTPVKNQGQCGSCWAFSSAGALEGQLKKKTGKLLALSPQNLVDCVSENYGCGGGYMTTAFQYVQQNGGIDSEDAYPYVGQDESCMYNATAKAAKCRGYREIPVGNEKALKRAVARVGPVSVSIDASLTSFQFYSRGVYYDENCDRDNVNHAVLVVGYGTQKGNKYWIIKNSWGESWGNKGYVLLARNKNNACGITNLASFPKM

As a reminder, the IC50 is the concentration needed to halve the response being measured.

For assay [1], the system named is monosodium iodoacetate rat model of OA pain. The assay is described as follows: Hind paw withdrawal thresholds (von Frey) in the MIA model. How it is done: Rats were briefly anesthetized (isoflurane 2.5%–3% in 100% O2), and once areflexic received a single intra-articular injection of 1 mg MIA (Sigma, Gillingham, Dorset, United Kingdom) in 50-μL saline or 50-μL saline through the infrapatellar ligament of the left knee.[37] Pain behaviour was assessed at baseline before injection (day 0) and then after intra-articular injection twice weekly. Weight distribution on the left (ipsilateral) and right (contralateral) hind limb was assessed using an incapacitance tester (Linton Instrumentation Diss, Norfolk, United Kingdom) as previously described.[37] Changes in hind paw withdrawal thresholds (PWTs) were assessed using von Frey monofilaments; Linton Instrumentation, Norfolk, United Kingdom (Semmes-Weinstein monofilaments of bending forces 0.4–26 g) as previously described.[37]
In the first study, the effects of preventative treatment with 30-mg/kg L-006235 were studied. In the second study, the effects of preventative treatment with 30-mg/kg and 100-mg/kg L-006235 were studied. Rats received either vehicle (20% HP-β-CD) or L-006235 starting 1 day before MIA injection. L-006235 was administered orally twice a day for a total of 28 days (day −1 to 27 after MIA injection). Pain behaviour was measured at baseline before MIA injection and then twice a week until day 27. Pain behaviour was measured before the first dose of the day and was measured 24 hours after blood sampling (see below). […] As with the preventative study, pain behaviour was measured before the MIA injection and then twice a week until day 41 after injection. Similarly, behaviour was measured before rats received the first oral dose each day and was measured 24 hours after blood sampling (see below). […]
All statistics were calculated using Prism 5.0 or 7.0 software (Graphpad, La Jolla, CA). Weight-bearing data were analysed with a 2-way analysis of variance (ANOVA) with a Bonferroni post hoc test. […] Differences between the area under the curve for weight bearing and the log-transformed PWTs were analysed using a 1-way ANOVA. […]

Another assay deals with ACLT model of OA. To be noted: cited from earlier work.
For the next assay, the target named is rat cathepsin K (Rattus norvegicus, UniProt O35186). The assay can be described thus: Inhibition of rat cathepsin K. To be noted: read-out: IC50 against rat cathepsin K; no method or reference given. It counts as biochemical.
The next assay deals with CTX-I. The assay is described as follows: Serum CTX-I biomarker in naive rats. To be noted: single oral dose 100 mg/kg. How it is done:
(§1) To assess the effects of L-006235 on biomarkers of bone resorption and cartilage degradation, a single dose of L-006235 (100 mg/kg) or vehicle (20% HP-β-CD) was administered through oral gavage to a separate group of naive rats (n = 3/group), and blood (app. 100 µL) was collected at baseline (before dosing) and at 1, 3, 6, and 24 hours after dosing for biomarker analyses. Levels of CTX-I and CTX-II in rat serum were measured using commercially available kits (RatLaps [CTX-I] EIA and Serum Pre-Clinical CartiLaps [CTX-II] ELISA; IDS Nordic, Herlev, Denmark), according to the recommendations by the manufacturer.

For assay [2], the system named is monosodium iodoacetate rat model of OA pain. The assay can be described thus: Histological scoring of knee joint pathology in the MIA model. The method, then:
On day 27 (preventative studies) or day 41 (therapeutic study), rats underwent a final pain behaviour assessment and then were euthanized with sodium pentobarbital and transcardially perfused with saline, followed by 4% paraformaldehyde (in 0.1-M phosphate-buffered saline). Tibiofemoral joints with the synovia attached were dissected and postfixed in paraformaldehyde for 48 hours and were then transferred into ethylenediaminetetraacetic acid (EDTA) solution for decalcification. Knees were then sectioned for staining with haematoxylin and eosin.[10] The pathology scoring was performed on 3 stained sections per rat[10] as previously described.[37] Cartilage damage and osteophytes were scored using the Janusz method as previously described.[17] Cartilage damage was evaluated from 1 (minimal superficial damage) to 5 (severe full-thickness degeneration to tidemark). This score was multiplied by the extent of cartilage area involved (1/3, 2/3 or 3/3) to give a maximum score of 15. Osteophytes were graded from 1 to 3 for mild (<40 µm), moderate (40–160 µm), or severe (>160 µm). Synovitis was scored to assess lining thickness and cellularity from a scale of 0 (lining layer, 1–2 cells thick) to 3 (lining layer >9 cells thick and/or severe increase in cellularity).[2]

Assay [3] concerns cathepsin K vs cathepsins B, L, and S. To be noted: cited from earlier work.
The next assay concerns CTX-II. The assay is described as follows: Serum CTX-II biomarker in naive rats. To be noted: single oral dose 100 mg/kg. The method, then:
as §1

SMILES strings stand for the structures.

As for `CN1CCN(c2nc(-c3ccc(C(=O)NC4(C(=O)NCC#N)CCCCC4)cc3)cs2)CC1`, the “MIA-induced lowered hind paw withdrawal thresholds” value in assay [1] (preventative 30 mg/kg oral twice daily, first preventative study, vs vehicle) is listed as “significantly attenuated”. The “hind paw withdrawal thresholds” value in assay [1] (preventative dosing, second preventative study, from day 7 onwards) is “prevent any further lowering in thresholds”. Moreover, the “lowered hind paw withdrawal thresholds” value in assay [1] (therapeutic 100 mg/kg oral twice daily from day 14, vs vehicle) is on record as “did not alter”. The “urine CTX-II levels” value in the assay with ACLT model of OA (50 mg/kg/d for 7 weeks from 1 week after surgery, at 3 weeks after treatment) is reported as “significantly lowered”. Further, the “Mankin score of joint pathology” value in the assay on ACLT model of OA (after 7 weeks of treatment, vs vehicle-treated rabbits) was “significantly lower”. Besides, the 50% inhibitory concentration (IC50) on rat cathepsin K stood at 7 nM. Moreover, the “reduction of serum CTX-I levels compared with baseline” value in the assay on CTX-I (1 hour after dose) is reported as 20%. For the same compound, the “reduction of serum CTX-I levels” value in the assay with CTX-I (3 hours after dose) is recorded as “No significant reductions”. In addition, in assay [2] (preventative 30 and 100 mg/kg, end of study day 27), the “joint damage (cartilage damage, synovitis, osteophyte score)” value is recorded as “Neither dose of L-006235 significantly altered”. Moreover, in assay [2] (therapeutic 100 mg/kg from day 14 to 41 after MIA), the “joint features (cartilage damage, synovitis, osteophyte score)” value is “did not alter any of the joint features studied”. Also, in assay [3], the “selectivity for cathepsin K vs cathepsins B, L, and S” value is “more than 5000 fold”. For the same compound, the figures for the “reduction of serum CTX-II levels compared with baseline” value in the assay on CTX-II (1 hour after dose) and in the assay with CTX-II (3 hours after dose) were 42% and 24%, respectively. Further, in the assay on CTX-II (6 hours after dose), the “serum CTX-II levels” value is reported as “returned to baseline”.
